Patent publication US9808466B2, “Macrocyclic compounds as protein kinase inhibitors” (Fundación Centro Nacional de Investigaciones Oncologicas …, priority 2011, dated 2017)

Chains of the proteins cited; added tags and fusions are not shown. Residues count along the entry.
UniProt P11309, whole entry: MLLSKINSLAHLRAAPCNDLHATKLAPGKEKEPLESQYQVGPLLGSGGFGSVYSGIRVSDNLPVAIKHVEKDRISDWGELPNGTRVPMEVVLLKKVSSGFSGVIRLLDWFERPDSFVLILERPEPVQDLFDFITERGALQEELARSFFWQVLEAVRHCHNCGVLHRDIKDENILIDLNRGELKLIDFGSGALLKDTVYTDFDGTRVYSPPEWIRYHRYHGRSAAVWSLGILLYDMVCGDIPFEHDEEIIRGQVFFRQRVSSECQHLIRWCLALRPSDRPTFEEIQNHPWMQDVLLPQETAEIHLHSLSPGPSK
UniProt P42336, whole entry: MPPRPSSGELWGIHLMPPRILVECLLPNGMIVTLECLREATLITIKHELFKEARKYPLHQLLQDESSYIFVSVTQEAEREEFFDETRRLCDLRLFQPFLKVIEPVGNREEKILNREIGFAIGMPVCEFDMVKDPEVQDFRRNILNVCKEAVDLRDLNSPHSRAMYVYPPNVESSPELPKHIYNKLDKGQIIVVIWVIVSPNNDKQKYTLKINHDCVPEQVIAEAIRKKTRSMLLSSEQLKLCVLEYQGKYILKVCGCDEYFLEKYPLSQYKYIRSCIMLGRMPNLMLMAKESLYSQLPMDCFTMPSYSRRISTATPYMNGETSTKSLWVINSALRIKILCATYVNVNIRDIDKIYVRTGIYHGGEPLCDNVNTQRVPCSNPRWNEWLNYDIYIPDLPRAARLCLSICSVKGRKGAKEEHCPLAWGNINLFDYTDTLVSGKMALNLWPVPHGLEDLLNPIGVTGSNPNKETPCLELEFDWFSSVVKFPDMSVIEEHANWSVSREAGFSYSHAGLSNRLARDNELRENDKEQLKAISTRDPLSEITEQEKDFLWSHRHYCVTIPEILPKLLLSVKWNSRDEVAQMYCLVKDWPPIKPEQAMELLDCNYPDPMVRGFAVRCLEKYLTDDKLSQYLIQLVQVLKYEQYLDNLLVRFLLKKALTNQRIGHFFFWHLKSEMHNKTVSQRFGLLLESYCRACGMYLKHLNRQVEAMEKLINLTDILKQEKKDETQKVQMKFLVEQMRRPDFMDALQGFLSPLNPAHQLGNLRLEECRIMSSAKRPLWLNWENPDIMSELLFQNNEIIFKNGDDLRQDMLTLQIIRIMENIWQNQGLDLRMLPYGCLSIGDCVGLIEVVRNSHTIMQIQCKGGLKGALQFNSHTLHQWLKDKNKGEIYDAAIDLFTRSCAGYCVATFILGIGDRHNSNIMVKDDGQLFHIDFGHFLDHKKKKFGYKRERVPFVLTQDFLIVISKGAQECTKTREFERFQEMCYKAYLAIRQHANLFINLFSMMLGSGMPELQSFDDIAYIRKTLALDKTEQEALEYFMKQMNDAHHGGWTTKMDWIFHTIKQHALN
UniProt P42345, 1360-2549 limits assumed: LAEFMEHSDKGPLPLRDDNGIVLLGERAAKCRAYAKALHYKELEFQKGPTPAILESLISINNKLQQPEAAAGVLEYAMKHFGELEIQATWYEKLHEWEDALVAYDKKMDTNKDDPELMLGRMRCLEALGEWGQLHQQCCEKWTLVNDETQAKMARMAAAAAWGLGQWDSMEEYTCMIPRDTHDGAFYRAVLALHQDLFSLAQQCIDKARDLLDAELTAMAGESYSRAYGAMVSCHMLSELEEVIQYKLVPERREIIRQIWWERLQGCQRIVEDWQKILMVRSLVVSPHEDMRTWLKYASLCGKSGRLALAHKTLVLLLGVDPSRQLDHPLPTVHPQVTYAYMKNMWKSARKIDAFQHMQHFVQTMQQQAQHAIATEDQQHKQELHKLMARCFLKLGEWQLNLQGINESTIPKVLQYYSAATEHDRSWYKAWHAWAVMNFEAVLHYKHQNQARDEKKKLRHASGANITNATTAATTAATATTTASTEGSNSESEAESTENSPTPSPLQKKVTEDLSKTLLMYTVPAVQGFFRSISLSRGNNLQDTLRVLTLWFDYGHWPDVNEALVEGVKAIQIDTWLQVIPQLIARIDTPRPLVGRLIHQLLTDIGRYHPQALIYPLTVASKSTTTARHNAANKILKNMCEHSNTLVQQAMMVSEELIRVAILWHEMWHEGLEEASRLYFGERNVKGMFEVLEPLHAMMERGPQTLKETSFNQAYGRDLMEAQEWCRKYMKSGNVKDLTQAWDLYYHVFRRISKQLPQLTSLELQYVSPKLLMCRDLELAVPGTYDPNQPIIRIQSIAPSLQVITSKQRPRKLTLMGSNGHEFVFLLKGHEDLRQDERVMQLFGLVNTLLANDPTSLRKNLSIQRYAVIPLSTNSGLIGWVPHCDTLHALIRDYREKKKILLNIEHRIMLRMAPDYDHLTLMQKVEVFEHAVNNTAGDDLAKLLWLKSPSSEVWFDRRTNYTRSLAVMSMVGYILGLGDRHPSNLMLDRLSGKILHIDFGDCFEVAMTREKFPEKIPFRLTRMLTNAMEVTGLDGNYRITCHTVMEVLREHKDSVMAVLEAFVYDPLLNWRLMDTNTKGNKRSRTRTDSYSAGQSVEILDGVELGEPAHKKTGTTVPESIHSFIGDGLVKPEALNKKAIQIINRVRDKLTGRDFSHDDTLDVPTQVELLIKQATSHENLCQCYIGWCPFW
UniProt P27986, whole entry partner: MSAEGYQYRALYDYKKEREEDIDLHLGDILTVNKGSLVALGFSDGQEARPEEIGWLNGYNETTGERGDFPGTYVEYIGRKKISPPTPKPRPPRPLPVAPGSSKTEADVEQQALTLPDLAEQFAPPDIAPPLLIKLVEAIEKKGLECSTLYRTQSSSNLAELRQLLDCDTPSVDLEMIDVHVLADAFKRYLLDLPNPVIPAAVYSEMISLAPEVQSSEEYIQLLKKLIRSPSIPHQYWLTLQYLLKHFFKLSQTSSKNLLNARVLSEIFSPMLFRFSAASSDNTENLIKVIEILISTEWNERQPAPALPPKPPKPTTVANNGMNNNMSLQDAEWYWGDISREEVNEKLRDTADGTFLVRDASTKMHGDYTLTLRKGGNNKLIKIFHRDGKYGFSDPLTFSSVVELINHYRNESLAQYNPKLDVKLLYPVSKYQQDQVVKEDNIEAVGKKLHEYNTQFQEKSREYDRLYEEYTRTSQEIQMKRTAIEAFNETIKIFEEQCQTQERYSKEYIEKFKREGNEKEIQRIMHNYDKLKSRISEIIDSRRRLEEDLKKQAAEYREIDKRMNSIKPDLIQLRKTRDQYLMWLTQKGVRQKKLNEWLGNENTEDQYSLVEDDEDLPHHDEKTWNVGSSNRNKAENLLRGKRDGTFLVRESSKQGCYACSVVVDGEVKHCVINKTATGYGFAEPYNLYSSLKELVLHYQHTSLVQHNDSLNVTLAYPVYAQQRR

What was measured:
[1] = target: PIM-1 (Homo sapiens, UniProt P11309); experiment: PIM-1 biochemical assay (ADP Hunter); conditions: read-out: PIM-1 activity, IC50 (semi-quantitative class); PIM1
[2] = target: PI3K (p110α/p85α) (Homo sapiens, UniProt P42336); experiment: PI3K activity assay (ADP Hunter Plus); conditions: read-out: PI3K alpha activity, IC50 (semi-quantitative class)
[3] = target: mTOR (Homo sapiens, UniProt P42345); experiment: mTOR assay (LanthaScreen kinase activity assay); format: biochemical; conditions: read-out: mTOR activity, IC50 (semi-quantitative class)

| SMILES | IC50 [1] [nM] | IC50 [2] [nM] | IC50 [3] [nM] |
| --- | --- | --- | --- |
| COc1ncc2cc1NS(=O)(=O)c1cccc(c1)C(=O)NCC(=O)NCc1cncc(c1)-c1cnc3sc-2nn13 | 100 to 1000 | 100 to 1000 | > 1000 |
| COc1ncc2cc1NS(=O)(=O)c1cccc(c1)C(=O)NCc1cncc(c1)-c1ccnc3[nH]c-2cc13 | 100 to 1000 | 100 to 1000 | > 1000 |
